For this experiment, the target named is Neutrophil collagenase (Homo sapiens, UniProt P22894).

By UniProt entry, the sequences of proteins in these tests, tags left out. Where a name states a change or a piece, a line headed by the entry shows the natural chain unless it says otherwise.
UniProt P22894: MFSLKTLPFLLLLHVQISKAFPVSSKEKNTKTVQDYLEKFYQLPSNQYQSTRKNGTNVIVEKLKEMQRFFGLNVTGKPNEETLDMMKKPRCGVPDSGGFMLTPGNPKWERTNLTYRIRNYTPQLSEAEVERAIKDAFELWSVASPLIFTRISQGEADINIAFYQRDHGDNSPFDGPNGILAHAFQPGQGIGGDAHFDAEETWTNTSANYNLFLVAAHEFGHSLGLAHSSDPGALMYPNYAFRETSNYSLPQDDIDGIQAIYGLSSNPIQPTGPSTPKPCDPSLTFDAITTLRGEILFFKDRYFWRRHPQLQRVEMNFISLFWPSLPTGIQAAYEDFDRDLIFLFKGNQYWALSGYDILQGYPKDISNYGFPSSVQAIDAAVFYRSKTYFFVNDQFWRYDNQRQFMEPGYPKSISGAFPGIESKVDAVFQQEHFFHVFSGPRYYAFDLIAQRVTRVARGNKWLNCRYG

The source of these data is ChEMBL document CHEMBL1132690, “Design, synthesis, and biological evaluation of potent thiazine- and thiazepine-based matrix metalloproteinase inhibitors” (J Med Chem, 1999).

Molecules are shown by their SMILES. pIC50: −log10 of the molar value.

The compound `COc1ccc(S(=O)(=O)N2CCSC(C)(C)[C@@H]2C(=O)NO)cc1` gave a pIC50 of 9.15.
